According to US9109007B2, “MHC-I restricted epitopes containing non-natural amino acid residues” (Purdue Pharma L.P., priority 2010, dated 2015):

Assays:
[1] = system: CD8+ T-cells; test: ELISPOT assay measuring IFNgamma production by CD8+ T-cells expanded by in vitro education on peptide-pulsed dendritic cells; type: cell-based, human; details: T-cells generated with the listed peptide, targets pulsed with 10 uM native MART-1 peptide
[2] = system: CD8+ T-cells; test: CD107 a and b staining (degranulation) of CD8+ T-cells expanded by in vitro education on peptide-pulsed dendritic cells; type: cell-based, human; details: T-cells generated with the listed peptide; HLA-A0201-transfected C1R targets pulsed with 20 uM native MART-1

Sequence: AAGIGILTV [Native MART-1 nonamer peptide]
- IFNγ Production for Targets Pulsed with Native MART-1 [1]: 11
- % CD8+ T-cells Degranulating (CD107+) for Targets Pulsed with Native MART-1 [2]: 4%
